## scFv variants of Ab-91 (heavy chain) against a SARS-CoV-2 spike peptide

From the AlphaSeq antibody data of Engelhart et al. 2022 (doi:10.1038/s41597-022-01779-4), copy in the FLAb collection.

Target: peptide PDVDLGDISGINAS, taken from heptad repeat 2 (HR2) of SARS-CoV-2 spike.

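The parent was found by panning a naive human phage display library on the peptide. Library AAYL51 holds single substitutions and randomly drawn double and triple substitutions in the CDRs. In AlphaSeq, yeast of one mating type display the scFv and yeast of the other type display the target. The frequency of each diploid, read from paired DNA barcodes, reflects how well the two displayed proteins bind. A regression on co-assayed BCL2-family reference pairs converts the normalised counts of each replicate to an apparent Kd. Each pool was mated in three replicate cultures.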

The variants keep the light chain, the linker and the frameworks of Ab-91 (scFv order VL, the linker GGGGSGGGGSGGGGS, VH).
VL: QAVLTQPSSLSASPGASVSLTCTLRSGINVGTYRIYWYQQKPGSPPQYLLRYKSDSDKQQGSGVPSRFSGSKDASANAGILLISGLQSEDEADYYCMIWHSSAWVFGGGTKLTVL
VH: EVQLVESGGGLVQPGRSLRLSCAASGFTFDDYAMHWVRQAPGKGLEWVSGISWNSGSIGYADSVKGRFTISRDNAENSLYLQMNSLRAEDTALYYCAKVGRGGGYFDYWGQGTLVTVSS

Variants are written as CDR1, CDR2 and CDR3 of the heavy chain (limits as in the source). Parent: GFTFDDYAMH, GISWNSGSIGYADSVK, VGRGGGYFDY.
Values are log10 of the apparent Kd in nM; lower means stronger binding.
"n.d." means that the variant was in the library but no mating with the target was seen in that replicate; the authors take this as a sign of poor binding, and no number exists.
In this assay the parent's reference entry averaged 1.86; its copy inside this library read 0.88.
Empty control strains, which show no peptide, gave a signal in 21% of pairings with library AAYL51; the median was 4.54 and 95% of these signals were weaker than 3.26. No background was subtracted. For each scFv, signals with the empty controls are counted beside the result, with their mean in brackets.

{"CDR-H1": "KFTFDDYAMH", "CDR-H2": "GISWNSGSIGFADSVK", "CDR-H3": "PGRGGGYFDY", "log10 Kd, replicates": "4.88 / 5.63 / 4.23", "control signals": "1 of 9 (4.22)"}
{"CDR-H1": "GMTFHDYAMH", "CDR-H2": "GISWNSGYIGYADSVK", "CDR-H3": "VGRGGGYFDY", "log10 Kd, replicates": "3.60 / n.d. / 3.86", "control signals": "2 of 9 (3.53)"}
{"CDR-H1": "GFTFDGYAMH", "CDR-H2": "LISWNSGSIGYADSVK", "CDR-H3": "VGRGGGYFAY", "log10 Kd, replicates": "n.d. / n.d. / n.d.", "control signals": "0 of 9"}
{"CDR-H1": "GFTFDDCAMH", "CDR-H2": "GISWNSGSIGYADSVK", "CDR-H3": "VGRGPGDFDY", "log10 Kd, replicates": "6.24 / n.d. / n.d.", "control signals": "4 of 9 (4.46)"}
{"CDR-H1": "GATFDDYAMH", "CDR-H2": "GIAWNSGSIGYADSVK", "CDR-H3": "VGKGGGYFDY", "log10 Kd, replicates": "6.15 / 4.02 / 5.15", "control signals": "2 of 9 (4.17)"}
{"CDR-H1": "GCTFDIYAMP", "CDR-H2": "GISWNSGSIGYADSVK", "CDR-H3": "VGRGGGYFDY", "log10 Kd, replicates": "4.58 / n.d. / 4.74", "control signals": "3 of 9 (4.44)"}
{"CDR-H1": "GFTFDDYAMH", "CDR-H2": "CISWKSGSIGYADSVK", "CDR-H3": "VGRGGGYDDY", "log10 Kd, replicates": "3.95 / n.d. / n.d.", "control signals": "1 of 9 (4.44)"}
{"CDR-H1": "QFTFDDYAMH", "CDR-H2": "GISWNSGSIGMADSVK", "CDR-H3": "VYRGGGYFDY", "log10 Kd, replicates": "n.d. / n.d. / n.d.", "control signals": "0 of 9"}
{"CDR-H1": "GFAFDDYAMH", "CDR-H2": "GIFWNCGSIGYADSVK", "CDR-H3": "VGRGGGYFDY", "log10 Kd, replicates": "n.d. / 4.67 / n.d.", "control signals": "0 of 9"}
{"CDR-H1": "GFTFDDYAMH", "CDR-H2": "GISWHSGSIGYADSVK", "CDR-H3": "VGRGGFYFGY", "log10 Kd, replicates": "3.60 / 4.24 / 3.53", "control signals": "4 of 9 (4.66)"}
{"CDR-H1": "ETTFDDYAMT", "CDR-H2": "GISWNSGSIGYADSVK", "CDR-H3": "VGRGGGYFDY", "log10 Kd, replicates": "n.d. / 3.84 / n.d.", "control signals": "1 of 9 (4.40)"}
{"CDR-H1": "GFTFDNYAMG", "CDR-H2": "GISWNSGSINYADSVK", "CDR-H3": "VGRGGGYFDY", "log10 Kd, replicates": "5.26 / n.d. / 4.72", "control signals": "2 of 9 (4.39)"}
{"CDR-H1": "GFTFDDYAMH", "CDR-H2": "GISWNSGSIGEAVSVK", "CDR-H3": "VGRGVGYFDY", "log10 Kd, replicates": "n.d. / n.d. / 4.69", "control signals": "1 of 9 (4.08)"}
{"CDR-H1": "GFTFDDYAMH", "CDR-H2": "GISWNSGSIGDADSVE", "CDR-H3": "VGMGGGYFDY", "log10 Kd, replicates": "3.59 / n.d. / n.d.", "control signals": "1 of 9 (4.16)"}
{"CDR-H1": "GFTFDDYAMH", "CDR-H2": "GTSENSGSIGGADSVK", "CDR-H3": "VGRGGGYFDY", "log10 Kd, replicates": "5.22 / 4.92 / 5.42", "control signals": "4 of 9 (4.45)"}
{"CDR-H1": "GFTFDDWAKH", "CDR-H2": "GISWNSGSIGYADSVK", "CDR-H3": "VGRNGGYFDY", "log10 Kd, replicates": "4.70 / 4.19 / 4.48", "control signals": "3 of 9 (4.82)"}
{"CDR-H1": "GFWFDDWAMH", "CDR-H2": "GISWNSGMIGYADSVK", "CDR-H3": "VGRGGGYFDY", "log10 Kd, replicates": "4.61 / 4.08 / 4.95", "control signals": "3 of 9 (4.71)"}
{"CDR-H1": "GFTFDDYAMH", "CDR-H2": "GISWNSGSIGYADMVK", "CDR-H3": "VGQGGGYFDD", "log10 Kd, replicates": "2.49 / 2.54 / 2.29", "control signals": "4 of 9 (4.82)"}
{"CDR-H1": "GFEFDDYAMH", "CDR-H2": "GISWNSGSIGYADQVK", "CDR-H3": "VGRGGGYFDY", "log10 Kd, replicates": "1.11 / 1.25 / 0.81", "control signals": "2 of 9 (3.74)"}
{"CDR-H1": "KFTFDDHAMH", "CDR-H2": "GISWNSGSIGYADSKK", "CDR-H3": "VGRGGGYFDY", "log10 Kd, replicates": "n.d. / 5.17 / n.d.", "control signals": "1 of 9 (4.59)"}
{"CDR-H1": "GFTFDDYAMH", "CDR-H2": "GISWNSASIFYADSVK", "CDR-H3": "VGRGGGPFDY", "log10 Kd, replicates": "n.d. / n.d. / n.d.", "control signals": "2 of 9 (3.13)"}
{"CDR-H1": "GFTLDSYAMH", "CDR-H2": "GISWNSGSIGYADSVK", "CDR-H3": "VGRGGGRFDY", "log10 Kd, replicates": "n.d. / n.d. / n.d.", "control signals": "1 of 9 (2.94)"}
{"CDR-H1": "GFTFDDYAMH", "CDR-H2": "GISVNSGSIGYADSVK", "CDR-H3": "TGRGGGDFDY", "log10 Kd, replicates": "n.d. / n.d. / n.d.", "control signals": "2 of 9 (3.84)"}
{"CDR-H1": "GFTFDDYAMH", "CDR-H2": "GISWNSGSIGYWDSVK", "CDR-H3": "VPRGYGYFDY", "log10 Kd, replicates": "n.d. / n.d. / n.d.", "control signals": "0 of 9"}
{"CDR-H1": "KFTFDDYAMH", "CDR-H2": "GISWNSGSIGYDDSVK", "CDR-H3": "VGRGGGYFDY", "log10 Kd, replicates": "n.d. / 5.35 / n.d.", "control signals": "1 of 9 (2.77)"}
{"CDR-H1": "GFTFDDYVMH", "CDR-H2": "GIDWNSGSIGYADRVK", "CDR-H3": "VGRGGGYFDY", "log10 Kd, replicates": "n.d. / n.d. / n.d.", "control signals": "1 of 9 (3.71)"}
{"CDR-H1": "PFTFPDYAMH", "CDR-H2": "GISWNSGGIGYADSVK", "CDR-H3": "VGRGGGYFDY", "log10 Kd, replicates": "n.d. / n.d. / 4.06", "control signals": "2 of 9 (3.94)"}
{"CDR-H1": "GFTFDDNAMH", "CDR-H2": "GISWNSGSIGYADSVV", "CDR-H3": "VGRGGAYFDY", "log10 Kd, replicates": "n.d. / 4.06 / n.d.", "control signals": "0 of 9"}
{"CDR-H1": "GFTFDDYAMH", "CDR-H2": "KISWISGSIGVADSVK", "CDR-H3": "VGRGGGYFDY", "log10 Kd, replicates": "n.d. / n.d. / n.d.", "control signals": "0 of 9"}

4 of these entries, quoted again:

| CDR-H1 | CDR-H2 | CDR-H3 | log10 Kd, replicates | control signals |
|---|---|---|---|---|
| GFTFDDCAMH | GISWNSGSIGYADSVK | VGRGPGDFDY | 6.24 / n.d. / n.d. | 4 of 9 (4.46) |
| GFTFDDYAMH | GTSENSGSIGGADSVK | VGRGGGYFDY | 5.22 / 4.92 / 5.42 | 4 of 9 (4.45) |
| PFTFPDYAMH | GISWNSGGIGYADSVK | VGRGGGYFDY | n.d. / n.d. / 4.06 | 2 of 9 (3.94) |
| GATFDDYAMH | GIAWNSGSIGYADSVK | VGKGGGYFDY | 6.15 / 4.02 / 5.15 | 2 of 9 (4.17) |